# Results taken from US9642869B2, “Boronic acid derivatives and therapeutic uses thereof” (Rempex Pharmaceuticals, Inc., priority 2013, dated 2017).
# Test system: SHV-12 KP1010
# Settings: not given
row,Structure (SMILES),TIG MPC4 SHV-12 KP1010
1,"O=C(Cc1cccs1)N[C@H]1Cc2cccc(C(=O)O)c2OB1O [CPD A, reference compound]",X (key: X: MIC of less than 1 μg/mL; Y: MIC of 1 μg/mL to 10 μg/mL; Z: MIC of greater than 10 μg/mL)
2,"O=C(COCc1ccccc1)N[C@H]1Cc2cccc(C(=O)O)c2OB1O [CPD B, reference compound]",Y (key: X: MIC of less than 1 μg/mL; Y: MIC of 1 μg/mL to 10 μg/mL; Z: MIC of greater than 10 μg/mL)
3,"Cn1nnnc1SCC(=O)N[C@H]1Cc2cccc(C(=O)O)c2OB1O [Compound 2, (R)-2-hydroxy-3-(2-(1-methyl-1H-tetrazol-5-ylthio)acetamido)-3,4-dihydro-2H-benzo[e][1,2]oxaborinine-8-carboxylic acid]",X (key: X: MIC of less than 1 μg/mL; Y: MIC of 1 μg/mL to 10 μg/mL; Z: MIC of greater than 10 μg/mL)
4,"O=C(CSC(F)F)N[C@H]1Cc2cccc(C(=O)O)c2OB1O [Compound 3, (R)-3-(2-(difluoromethylthio)acetamido)-2-hydroxy-3,4-dihydro-2H-benzo[e][1,2]oxaborinine-8-carboxylic acid]",X (key: X: MIC of less than 1 μg/mL; Y: MIC of 1 μg/mL to 10 μg/mL; Z: MIC of greater than 10 μg/mL)
5,"O=CN[C@H]1Cc2cccc(C(=O)O)c2OB1O [Compound 4, (R)-3-formamido-2-hydroxy-3,4-dihydro-2H-benzo[e][1,2]oxaborinine-8-carboxylic acid]",X (key: X: MIC of less than 1 μg/mL; Y: MIC of 1 μg/mL to 10 μg/mL; Z: MIC of greater than 10 μg/mL)
6,"Nc1nnc(SCC(=O)N[C@H]2Cc3cccc(C(=O)O)c3OB2O)s1 [Compound 5, (R)-3-(2-(5-amino-1,3,4-thiadiazol-2-ylthio)acetamido)-2-hydroxy-3,4-dihydro-2H-benzo[e][1,2]oxaborinine-8-carboxylic acid]",X (key: X: MIC of less than 1 μg/mL; Y: MIC of 1 μg/mL to 10 μg/mL; Z: MIC of greater than 10 μg/mL)
7,"NC(=O)N[C@H]1Cc2cccc(C(=O)O)c2OB1O [Compound 6, (R)-2-hydroxy-3-ureido-3,4-dihydro-2H-benzo[e][1,2]oxaborinine-8-carboxylic acid]",Y (key: X: MIC of less than 1 μg/mL; Y: MIC of 1 μg/mL to 10 μg/mL; Z: MIC of greater than 10 μg/mL)
8,"O=C(CSc1nncs1)N[C@H]1Cc2cccc(C(=O)O)c2OB1O [Compound 7, (R)-3-(2-(1,3,4-thiadiazol-2-ylthio)acetamido)-2-hydroxy-3,4-dihydro-2H-benzo[e][1,2]oxaborinine-8-carboxylic acid]",X (key: X: MIC of less than 1 μg/mL; Y: MIC of 1 μg/mL to 10 μg/mL; Z: MIC of greater than 10 μg/mL)
9,"[N-]=[N+]=NCC(=O)N[C@H]1Cc2cccc(C(=O)O)c2OB1O [Compound 8, (R)-3-(2-azidoacetamido)-2-hydroxy-3,4-dihydro-2H-benzo[e][1,2]oxaborinine-8-carboxylic acid]",X (key: X: MIC of less than 1 μg/mL; Y: MIC of 1 μg/mL to 10 μg/mL; Z: MIC of greater than 10 μg/mL)
10,"CN(C)C(=O)C(=O)N[C@H]1Cc2cccc(C(=O)O)c2OB1O [Compound 9, (R)-3-(2-(dimethylamino)-2-oxoacetamido)-2-hydroxy-3,4-dihydro-2H-benzo[e][1,2]oxaborinine-8-carboxylic acid]",Y (key: X: MIC of less than 1 μg/mL; Y: MIC of 1 μg/mL to 10 μg/mL; Z: MIC of greater than 10 μg/mL)
11,"CN(C)C(=O)CC(=O)N[C@H]1Cc2cccc(C(=O)O)c2OB1O [Compound 10, (R)-3-(3-(dimethylamino)-3-oxopropanamido)-2-hydroxy-3,4-dihydro-2H-benzo[e][1,2]oxaborinine-8-carboxylic acid]",X (key: X: MIC of less than 1 μg/mL; Y: MIC of 1 μg/mL to 10 μg/mL; Z: MIC of greater than 10 μg/mL)
12,"CSC(=O)N[C@H]1Cc2cccc(C(=O)O)c2OB1O [Compound 11, (R)-2-hydroxy-3-(methylthiocarbonylamino)-3,4-dihydro-2H-benzo[e][1,2]oxaborinine-8-carboxylic acid]",X (key: X: MIC of less than 1 μg/mL; Y: MIC of 1 μg/mL to 10 μg/mL; Z: MIC of greater than 10 μg/mL)
13,"O=C(N[C@H]1Cc2cccc(C(=O)O)c2OB1O)c1cccnc1 [Compound 12, (R)-2-hydroxy-3-(nicotinamido)-3,4-dihydro-2H-benzo[e][1,2]oxaborinine-8-carboxylic acid]",X (key: X: MIC of less than 1 μg/mL; Y: MIC of 1 μg/mL to 10 μg/mL; Z: MIC of greater than 10 μg/mL)
14,"CSCC(=O)N[C@H]1Cc2cccc(C(=O)O)c2OB1O [Compound 13, (R)-2-hydroxy-3-(2-(methylthio)acetamido)-3,4-dihydro-2H-benzo[e][1,2]oxaborinine-8-carboxylic acid]",X (key: X: MIC of less than 1 μg/mL; Y: MIC of 1 μg/mL to 10 μg/mL; Z: MIC of greater than 10 μg/mL)
15,"O=C(N[C@H]1Cc2cccc(C(=O)O)c2OB1O)c1cncc(F)c1 [Compound 14, (R)-3-(5-fluoronicotinamido)-2-hydroxy-3,4-dihydro-2H-benzo[e][1,2]oxaborinine-8-carboxylic acid]",X (key: X: MIC of less than 1 μg/mL; Y: MIC of 1 μg/mL to 10 μg/mL; Z: MIC of greater than 10 μg/mL)
16,"O=C(N[C@H]1Cc2cccc(C(=O)O)c2OB1O)c1cncs1 [Compound 15, (R)-2-hydroxy-3-(thiazole-5-carboxamido)-3,4-dihydro-2H-benzo[e][1,2]oxaborinine-8-carboxylic acid]",X (key: X: MIC of less than 1 μg/mL; Y: MIC of 1 μg/mL to 10 μg/mL; Z: MIC of greater than 10 μg/mL)
17,"NC(=O)CC(=O)N[C@H]1Cc2cccc(C(=O)O)c2OB1O [Compound 16, (R)-3-(3-amino-3-oxopropanamido)-2-hydroxy-3,4-dihydro-2H-benzo[e][1,2]oxaborinine-8-carboxylic acid]",X (key: X: MIC of less than 1 μg/mL; Y: MIC of 1 μg/mL to 10 μg/mL; Z: MIC of greater than 10 μg/mL)
18,"NC(=O)C(=O)N[C@H]1Cc2cccc(C(=O)O)c2OB1O [Compound 17, (R)-3-(2-amino-2-oxoacetamido)-2-hydroxy-3,4-dihydro-2H-benzo[e][1,2]oxaborinine-8-carboxylic acid]",Y (key: X: MIC of less than 1 μg/mL; Y: MIC of 1 μg/mL to 10 μg/mL; Z: MIC of greater than 10 μg/mL)
19,"O=C(N[C@H]1Cc2cccc(C(=O)O)c2OB1O)c1cncnc1 [Compound 18, (R)-2-hydroxy-3-(pyrimidine-5-carboxamido)-3,4-dihydro-2H-benzo[e][1,2]oxaborinine-8-carboxylic acid]",X (key: X: MIC of less than 1 μg/mL; Y: MIC of 1 μg/mL to 10 μg/mL; Z: MIC of greater than 10 μg/mL)
20,"Nc1nnc(C(=O)N[C@H]2Cc3cccc(C(=O)O)c3OB2O)s1 [Compound 19, (R)-3-(5-amino-1,3,4-thiadiazole-2-carboxamido)-2-hydroxy-3,4-dihydro-2H-benzo[e][1,2]oxaborinine-8-carboxylic acid]",X (key: X: MIC of less than 1 μg/mL; Y: MIC of 1 μg/mL to 10 μg/mL; Z: MIC of greater than 10 μg/mL)
21,"Nc1nnc(C(=O)N[C@H]2Cc3cccc(C(=O)O)c3OB2O)o1 [Compound 20, (R)-3-(5-amino-1,3,4-oxadiazole-2-carboxamido)-2-hydroxy-3,4-dihydro-2H-benzo[e][1,2]oxaborinine-8-carboxylic acid]",X (key: X: MIC of less than 1 μg/mL; Y: MIC of 1 μg/mL to 10 μg/mL; Z: MIC of greater than 10 μg/mL)
22,"CNC(=O)CC(=O)N[C@H]1Cc2cccc(C(=O)O)c2OB1O [Compound 21, (R)-2-hydroxy-3-(3-(methylamino)-3-oxopropanamido)-3,4-dihydro-2H-benzo[e][1,2]oxaborinine-8-carboxylic acid]",X (key: X: MIC of less than 1 μg/mL; Y: MIC of 1 μg/mL to 10 μg/mL; Z: MIC of greater than 10 μg/mL)
23,"O=C(CSC1CNC1)N[C@H]1Cc2cccc(C(=O)O)c2OB1O [Compound 22, (R)-3-(2-(azetidin-3-ylthio)acetamido)-2-hydroxy-3,4-dihydro-2H-benzo[e][1,2]oxaborinine-8-carboxylic acid]",X (key: X: MIC of less than 1 μg/mL; Y: MIC of 1 μg/mL to 10 μg/mL; Z: MIC of greater than 10 μg/mL)

# Same assay, conditions: minimum BLI concentration inhibiting growth with tigemonam at 4 μg/mL
row,Structure (SMILES),TIG MPC4 SHV-12 KP1010
1,"O=C(CSC(F)(F)F)N[C@H]1Cc2cccc(C(=O)O)c2OB1O [Compound 1, (R)-2-hydroxy-3-(2-(trifluoromethylthio)acetamido)-3,4-dihydro-2H-benzo[e][1,2]oxaborinine-8-carboxylic acid]",X (MIC of less than 1 μg/mL)
